Values quoted from earlier work as cited in patent US9307763B2, “Ligands for odor receptors and olfactory neurons” (The Regents of the University of California, priority 2010, dated 2016).

Test system: CO2 responsive neurons
Settings: activities normalized from 100 (strongest observed activator) to −100 (most inhibitory); averaged across the top 2 responders of the 4 species; cited from earlier work

In the case of `CCC(=O)Br`, the “Final Activity” value is given as −88.
